Consider four compounds from PMC3602246 (BMC Pharmacology & Toxicology, 2013).

Protein sequences, listed by entry. Tags and fused reporters are not part of them. Lines headed by an entry give the natural chain unless they say otherwise; changes in a name come on top.
UniProt P35372, whole entry, looked up: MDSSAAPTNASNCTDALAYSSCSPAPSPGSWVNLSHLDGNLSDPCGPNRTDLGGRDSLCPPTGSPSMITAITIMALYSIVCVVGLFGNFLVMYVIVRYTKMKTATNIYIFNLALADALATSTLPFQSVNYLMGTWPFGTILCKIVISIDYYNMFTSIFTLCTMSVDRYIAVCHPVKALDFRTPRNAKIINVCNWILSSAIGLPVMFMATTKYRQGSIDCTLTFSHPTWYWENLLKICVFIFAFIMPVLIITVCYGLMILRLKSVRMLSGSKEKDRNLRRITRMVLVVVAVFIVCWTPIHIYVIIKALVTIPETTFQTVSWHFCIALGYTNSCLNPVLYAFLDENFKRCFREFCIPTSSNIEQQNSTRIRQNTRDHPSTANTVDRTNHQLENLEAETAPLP
UniProt P41143, whole entry, looked up: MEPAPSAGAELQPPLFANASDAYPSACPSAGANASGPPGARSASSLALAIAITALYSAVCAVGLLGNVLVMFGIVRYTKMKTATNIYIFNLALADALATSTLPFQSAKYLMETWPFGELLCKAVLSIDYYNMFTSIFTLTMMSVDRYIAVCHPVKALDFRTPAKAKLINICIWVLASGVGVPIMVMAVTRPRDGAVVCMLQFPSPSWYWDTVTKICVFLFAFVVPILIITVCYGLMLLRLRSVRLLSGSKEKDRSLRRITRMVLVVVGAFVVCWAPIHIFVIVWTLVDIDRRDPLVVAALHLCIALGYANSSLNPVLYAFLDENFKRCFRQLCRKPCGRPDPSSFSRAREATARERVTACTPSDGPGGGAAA
UniProt P41145: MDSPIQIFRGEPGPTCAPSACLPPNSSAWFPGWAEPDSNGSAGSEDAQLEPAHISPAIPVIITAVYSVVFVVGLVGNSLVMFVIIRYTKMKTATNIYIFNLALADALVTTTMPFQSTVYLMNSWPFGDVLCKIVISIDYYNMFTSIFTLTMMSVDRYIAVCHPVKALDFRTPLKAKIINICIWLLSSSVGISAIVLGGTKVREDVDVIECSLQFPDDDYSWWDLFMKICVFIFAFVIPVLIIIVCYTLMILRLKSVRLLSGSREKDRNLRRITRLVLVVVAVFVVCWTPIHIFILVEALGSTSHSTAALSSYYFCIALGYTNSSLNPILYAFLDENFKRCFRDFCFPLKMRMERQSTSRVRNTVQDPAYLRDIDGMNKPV

The subject of one test is DOR. The note with it: read-out: IC50, affinity binding to the DOR; literature values marked (IC50); ref Reference column of Table S2; cited from earlier work.
The subject of a further test is KOR. The note with it: ref References column of Table S3, cited from earlier work; for Ki: read-out: Ki, affinity binding to the KOR, literature values, one reference per ligand.
In test [1] the target is human mu opioid receptor (MOR1) (Homo sapiens, UniProt P35372). Description: DMR agonist assay in HEK-MOR cells. It is filed as cell-based. The note with it: ligand 10 μM.
Test [2] concerns the target T1, human delta opioid receptor (Homo sapiens, UniProt P41143). In words: DMR agonist assay in HEK-DOR cells. The note with it: for DMR agonist activity classification, DOR: ligand 10 μM.
The target in test [3] is human kappa opioid receptor (Homo sapiens, UniProt P41145). Description: DMR agonist assay in HEK-KOR cells. It is filed as cell-based. The note with it: ligand 10 μM.
Test [4] has as its target T1, human delta opioid receptor. Description: iPOT DMR profiling of HEK-DOR cells pretreated with probe molecules. The note with it: ligand 10 μM. It is filed as cell-based.
A further test concerns MOR. The note with it: read-out: Ki, affinity binding to the MOR; literature values, one reference per ligand; ref Reference column of Table S1; cited from earlier work.

On to `CN(C(=O)Cc1ccccc1)[C@H](CN1CCCC1)c1ccccc1`, for which the IC50 was more than 1000 nM in the test on DOR and 1.4 nM in the test on KOR (read-out: IC50, affinity binding to the KOR, literature values marked (IC50)).

With `CN(C(=O)Cc1ccccc1)[C@H](CN1CCCC1)c1ccccc1.Cl`, the “DMR agonist activity classification, MOR” value in test [1] is “Partial agonist (a ligand whose DMR amplitude was smaller the mean-2σ of its positive control and greater than 50 pm was considered to be a partial agonist)”. Moreover, the “DMR agonist activity classification, DOR” value in test [2] was “Partial agonist (a ligand whose DMR amplitude was smaller the mean-2σ of its positive control and greater than 50 pm was considered to be a partial agonist)”.

With `CN(C(=O)Cc1ccc(Cl)c(Cl)c1)[C@H](CN1CCCC1)c1ccccc1` [ICI 199,441], the Ki with KOR was 0.054 nM. Moreover, the “DMR agonist activity classification, MOR” value in test [1] is on record as “Full agonist”. The “DMR agonist activity classification, KOR” value in test [3] is given as “Full agonist”. The “DMR agonist activity classification, DOR” value in test [2] is “Partial agonist (a ligand whose DMR amplitude was smaller the mean-2σ of its positive control and greater than 50 pm was considered to be a partial agonist)”. Moreover, the “maximal DMR amplitude” value in test [2] (monophasic dose response, n = 16) was 300±23 pm.

Consider “(8-Naphthalen-1-ylmethyl-4-oxo-1-phenyl-1,3,8-triaza-spiro[4.5]-dec-3-yl)-acetic acid methyl ester”, for which the Ki was 405 nM with KOR and 140 nM with MOR. Also, the “DMR agonist activity classification, MOR” value in test [1] is “Partial agonist (a ligand whose DMR amplitude was smaller the mean-2σ of its positive control and greater than 50 pm was considered to be a partial agonist)”. In test [3], the “DMR agonist activity classification, KOR” value is “Partial agonist (a ligand whose DMR amplitude was smaller the mean-2σ of its positive control and greater than 50 pm was considered to be a partial agonist)”. In test [4] (10 μM LY294002, 1 hr), the “effect of LY294002 pretreatment on ligand DMR” value is listed as “insensitive”. For the same compound, the “effect of SB202190 pretreatment on ligand DMR” value in test [4] (10 μM SB202190, 1 hr) is “suppressed”. Further, in test [4] (10 μM SP600125, 1 hr), the “effect of SP600125 pretreatment on ligand DMR” value is “insensitive”. Besides, the “effect of U0126 pretreatment on ligand DMR” value in test [4] (10 μM U0126, 1 hr) was “insensitive”. For the same compound, in test [2], the “DMR agonist activity classification, DOR” value was “Partial agonist (a ligand whose DMR amplitude was smaller the mean-2σ of its positive control and greater than 50 pm was considered to be a partial agonist)”.
